Source: ChEMBL document CHEMBL4673256, “Pyrazol-1-yl-propanamides as SARD and Pan-Antagonists for the Treatment of Enzalutamide-Resistant Prostate Cancer” (J Med Chem, 2020)
pKi: −log10 of the molar value.

Molecular target: T1, Androgen receptor (Rattus norvegicus, UniProt P15207)
T1 sequence (P15207 whole entry): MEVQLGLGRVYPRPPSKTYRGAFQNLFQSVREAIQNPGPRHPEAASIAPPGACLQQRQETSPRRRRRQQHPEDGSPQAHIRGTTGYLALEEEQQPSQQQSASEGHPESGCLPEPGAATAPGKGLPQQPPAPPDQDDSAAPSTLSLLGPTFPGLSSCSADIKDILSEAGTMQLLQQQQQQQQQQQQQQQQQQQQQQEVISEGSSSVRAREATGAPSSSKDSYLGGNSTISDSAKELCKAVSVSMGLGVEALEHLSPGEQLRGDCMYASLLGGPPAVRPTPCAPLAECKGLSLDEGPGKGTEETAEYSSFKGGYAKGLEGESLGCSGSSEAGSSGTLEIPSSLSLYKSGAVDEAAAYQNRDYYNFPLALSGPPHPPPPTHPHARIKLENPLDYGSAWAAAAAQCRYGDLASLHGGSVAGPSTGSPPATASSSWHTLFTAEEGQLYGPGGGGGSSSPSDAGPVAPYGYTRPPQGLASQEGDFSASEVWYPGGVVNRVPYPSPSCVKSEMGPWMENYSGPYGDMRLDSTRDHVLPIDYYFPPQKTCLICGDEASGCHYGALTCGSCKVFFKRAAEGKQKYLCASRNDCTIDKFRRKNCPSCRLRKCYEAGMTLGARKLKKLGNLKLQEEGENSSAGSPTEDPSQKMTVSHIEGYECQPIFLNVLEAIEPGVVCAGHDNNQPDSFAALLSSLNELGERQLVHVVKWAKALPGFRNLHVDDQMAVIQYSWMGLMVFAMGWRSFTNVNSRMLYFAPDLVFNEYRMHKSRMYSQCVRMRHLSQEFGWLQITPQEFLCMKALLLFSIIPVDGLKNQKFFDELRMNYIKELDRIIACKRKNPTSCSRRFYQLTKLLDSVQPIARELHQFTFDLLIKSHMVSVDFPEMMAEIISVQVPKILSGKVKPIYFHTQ

CC(Cn1cc(F)cn1)C(=O)Nc1ccc(C#N)c(C(F)(F)F)c1 (stereo unspecified)
pKi: < 5.00
